Measured affinities in a library of Ab-91 heavy chain variants

The measurements come from Engelhart et al. 2022 (doi:10.1038/s41597-022-01779-4) through the FLAb antibody collection.

Binding partner: SARS-CoV-2 spike HR2 peptide, sequence PDVDLGDISGINAS.

Ab-91 is the parent antibody, in scFv form: VL, then a (GGGGS)3 linker, then VH. The light chain is unchanged in all variants.
VL: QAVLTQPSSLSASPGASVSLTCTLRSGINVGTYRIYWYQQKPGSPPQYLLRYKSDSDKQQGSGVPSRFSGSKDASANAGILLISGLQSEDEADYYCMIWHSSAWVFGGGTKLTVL
VH: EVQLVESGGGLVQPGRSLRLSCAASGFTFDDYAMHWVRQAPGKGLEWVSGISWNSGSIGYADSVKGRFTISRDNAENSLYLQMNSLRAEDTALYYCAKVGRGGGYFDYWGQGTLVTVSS

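In library AAYL51, one, two or three CDR residues were substituted; doubles and triples were drawn at random. The assay is AlphaSeq: two haploid yeast populations carry antibody and antigen on their surface. Mating (16 h, 30 °C) was followed by selection of diploids and sequencing of their barcodes. A regression on co-assayed BCL2-family reference pairs converts the normalised counts of each replicate to an apparent Kd. There are three technical replicates.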

Variants are written as CDR1, CDR2 and CDR3 of the heavy chain (limits as in the source). Parent: GFTFDDYAMH, GISWNSGSIGYADSVK, VGRGGGYFDY. Numbers give log10(Kd / nM), so 0 is 1 nM and 3 is 1 µM. Smaller is tighter. "nd" means that the variant was in the library but no mating with the target was seen in that replicate; the authors take this as a sign of poor binding, and no number exists.

{"CDR-H1": "GCTFDDYAMH", "CDR-H2": "GISWNSGSIGYADSVR", "CDR-H3": "VGRGGGIFDY", "log10 Kd, replicates": "nd nd nd", "control signals": "0/9"}
{"CDR-H1": "GFTFDDCAMH", "CDR-H2": "GISWNSGSIGYADSVK", "CDR-H3": "KGRGGGYFDD", "log10 Kd, replicates": "5.13 nd nd", "control signals": "2/9 (4.35)"}
{"CDR-H1": "GFTFDDYMMH", "CDR-H2": "GISWNDGSIGGADSVK", "CDR-H3": "VGRGGGYFDY", "log10 Kd, replicates": "4.53 5.01 nd", "control signals": "2/9 (5.18)"}
{"CDR-H1": "GFTFDDYAIH", "CDR-H2": "GISWNSGVIAYADSVK", "CDR-H3": "VGRGGGYFDY", "log10 Kd, replicates": "3.03 nd nd", "control signals": "1/9 (4.09)"}
{"CDR-H1": "GFHFDDYAMH", "CDR-H2": "GISWNSGHIGYADSVK", "CDR-H3": "VGRGGGYFIY", "log10 Kd, replicates": "nd nd nd", "control signals": "1/9 (4.10)"}
{"CDR-H1": "GFTNDDYAMH", "CDR-H2": "GISWNSASRGYADSVK", "CDR-H3": "VGRGGGYFDY", "log10 Kd, replicates": "nd nd nd", "control signals": "1/9 (2.81)"}
{"CDR-H1": "GFTFPDYAMH", "CDR-H2": "GISWNSGSIGYADSVK", "CDR-H3": "VGRGGGCFDY", "log10 Kd, replicates": "2.93 3.07 3.39", "control signals": "3/9 (4.25)"}
{"CDR-H1": "GFTFDDYAMH", "CDR-H2": "GISQNSGSIGYADSVK", "CDR-H3": "VGRSGGYFDY", "log10 Kd, replicates": "4.43 5.14 3.99", "control signals": "5/9 (4.41)"}
{"CDR-H1": "GFCFDDYAMH", "CDR-H2": "GISWNSGSIGYADSTK", "CDR-H3": "VGRGGGYGDY", "log10 Kd, replicates": "4.65 5.86 5.13", "control signals": "7/9 (5.01)"}
{"CDR-H1": "GFTFDDYAMH", "CDR-H2": "GISWNSGSIGMASSVK", "CDR-H3": "VWRGGGYFDY", "log10 Kd, replicates": "nd nd nd", "control signals": "1/9 (2.12)"}
{"CDR-H1": "HFTFDDYAMH", "CDR-H2": "TISWNSGSIGYADSVK", "CDR-H3": "VNRGGGYFDY", "log10 Kd, replicates": "nd nd nd", "control signals": "0/9"}
{"CDR-H1": "GFTFDDYAMH", "CDR-H2": "GISWNSGSKGYADSVK", "CDR-H3": "CGRIGGYFDY", "log10 Kd, replicates": "nd nd nd", "control signals": "0/9"}
{"CDR-H1": "GATFDDYAMH", "CDR-H2": "GTSWNSGSIGYADMVK", "CDR-H3": "VGRGGGYFDY", "log10 Kd, replicates": "nd 3.41 nd", "control signals": "1/9 (3.52)"}
{"CDR-H1": "GFTFDDYGMH", "CDR-H2": "GISWNSISIGYADSVK", "CDR-H3": "VGRGMGYFDY", "log10 Kd, replicates": "nd nd 3.99", "control signals": "2/9 (3.29)"}
{"CDR-H1": "GKTFDDYAMI", "CDR-H2": "GISWNSGSIGYADSVK", "CDR-H3": "VGRGGGYFDY", "log10 Kd, replicates": "nd nd nd", "control signals": "0/9"}
{"CDR-H1": "GFTFDDYAMF", "CDR-H2": "GISWNSGSIGHADTVK", "CDR-H3": "VGRGGGYFDY", "log10 Kd, replicates": "nd 6.31 nd", "control signals": "4/9 (4.55)"}
{"CDR-H1": "GFTFMDYAMH", "CDR-H2": "GISWQSGSIGYADSVK", "CDR-H3": "DGRGGGYFDY", "log10 Kd, replicates": "nd nd nd", "control signals": "1/9 (4.98)"}
{"CDR-H1": "KFTFDDYAMH", "CDR-H2": "GISINSESIGYADSVK", "CDR-H3": "VGRGGGYFDY", "log10 Kd, replicates": "nd nd nd", "control signals": "2/9 (4.96)"}
{"CDR-H1": "GFTFDFYAMH", "CDR-H2": "GISWNSGSIGHADSVK", "CDR-H3": "VGRGGGYFDF", "log10 Kd, replicates": "4.79 nd 4.16", "control signals": "0/9"}
{"CDR-H1": "GFTFDDYAML", "CDR-H2": "GISWNSGSIQYADSVK", "CDR-H3": "VGRGGGYFDT", "log10 Kd, replicates": "nd nd nd", "control signals": "0/9"}
{"CDR-H1": "GFTFMDAAMH", "CDR-H2": "GISWSSGSIGYADSVK", "CDR-H3": "VGRGGGYFDY", "log10 Kd, replicates": "3.62 4.90 4.28", "control signals": "4/9 (5.02)"}
{"CDR-H1": "GSTFDDYMMH", "CDR-H2": "GISWNSGSIGYADSVK", "CDR-H3": "MGRGGGYFDY", "log10 Kd, replicates": "3.26 nd nd", "control signals": "4/9 (4.02)"}
{"CDR-H1": "IFTFDDYAMH", "CDR-H2": "GISWNSGRHGYADSVK", "CDR-H3": "VGRGGGYFDY", "log10 Kd, replicates": "nd nd nd", "control signals": "1/9 (3.41)"}
{"CDR-H1": "PFTFDDYAMH", "CDR-H2": "GISWNSGIIGYADSVA", "CDR-H3": "VGRGGGYFDY", "log10 Kd, replicates": "nd nd nd", "control signals": "0/9"}
{"CDR-H1": "GFTFDDYAMH", "CDR-H2": "GRSWNSGDIGYADSVK", "CDR-H3": "VGRGGCYFDY", "log10 Kd, replicates": "nd nd nd", "control signals": "0/9"}

The closing 2 entries, repeated:

{"CDR-H1": "PFTFDDYAMH", "CDR-H2": "GISWNSGIIGYADSVA", "CDR-H3": "VGRGGGYFDY", "log10 Kd, replicates": "nd nd nd", "control signals": "0/9"}
{"CDR-H1": "GFTFDDYAMH", "CDR-H2": "GRSWNSGDIGYADSVK", "CDR-H3": "VGRGGCYFDY", "log10 Kd, replicates": "nd nd nd", "control signals": "0/9"}

As a blank, each scFv also met three strains without target: over library AAYL51, 21% of these pairings were detected, typically at 4.54 and seldom below 3.26. The control count says in how many pairings with the empty strains this scFv gave a signal, with their mean in brackets. For reference, the parent read 1.86 as the reference entry and 0.88 as a member of this library.